Laboratory results reported in PMC9884089 (Journal of Medicinal Chemistry, 2023).
Read-outs that look alike come from different tables or passages of the source.

Sequences of proteins named here, by UniProt entry; tags and fusion partners are left off. A change or cut given only in a name is not applied to a line headed by its entry.
UniProt Q9Y6F1: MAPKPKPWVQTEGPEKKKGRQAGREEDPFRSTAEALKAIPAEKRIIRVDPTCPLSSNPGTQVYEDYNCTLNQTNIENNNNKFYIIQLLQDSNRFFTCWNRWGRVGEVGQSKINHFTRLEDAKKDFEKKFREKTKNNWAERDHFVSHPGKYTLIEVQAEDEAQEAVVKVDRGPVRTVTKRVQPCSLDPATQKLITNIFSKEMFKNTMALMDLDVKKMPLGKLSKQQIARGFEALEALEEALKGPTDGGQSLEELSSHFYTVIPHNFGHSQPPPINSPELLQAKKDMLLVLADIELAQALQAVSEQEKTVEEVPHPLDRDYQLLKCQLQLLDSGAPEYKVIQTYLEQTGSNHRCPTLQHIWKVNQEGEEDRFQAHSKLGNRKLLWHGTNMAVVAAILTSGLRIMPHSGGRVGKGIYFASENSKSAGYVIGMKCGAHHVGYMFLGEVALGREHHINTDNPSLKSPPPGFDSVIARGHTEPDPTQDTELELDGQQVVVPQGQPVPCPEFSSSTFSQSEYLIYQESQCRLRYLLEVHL
UniProt P09874, whole entry: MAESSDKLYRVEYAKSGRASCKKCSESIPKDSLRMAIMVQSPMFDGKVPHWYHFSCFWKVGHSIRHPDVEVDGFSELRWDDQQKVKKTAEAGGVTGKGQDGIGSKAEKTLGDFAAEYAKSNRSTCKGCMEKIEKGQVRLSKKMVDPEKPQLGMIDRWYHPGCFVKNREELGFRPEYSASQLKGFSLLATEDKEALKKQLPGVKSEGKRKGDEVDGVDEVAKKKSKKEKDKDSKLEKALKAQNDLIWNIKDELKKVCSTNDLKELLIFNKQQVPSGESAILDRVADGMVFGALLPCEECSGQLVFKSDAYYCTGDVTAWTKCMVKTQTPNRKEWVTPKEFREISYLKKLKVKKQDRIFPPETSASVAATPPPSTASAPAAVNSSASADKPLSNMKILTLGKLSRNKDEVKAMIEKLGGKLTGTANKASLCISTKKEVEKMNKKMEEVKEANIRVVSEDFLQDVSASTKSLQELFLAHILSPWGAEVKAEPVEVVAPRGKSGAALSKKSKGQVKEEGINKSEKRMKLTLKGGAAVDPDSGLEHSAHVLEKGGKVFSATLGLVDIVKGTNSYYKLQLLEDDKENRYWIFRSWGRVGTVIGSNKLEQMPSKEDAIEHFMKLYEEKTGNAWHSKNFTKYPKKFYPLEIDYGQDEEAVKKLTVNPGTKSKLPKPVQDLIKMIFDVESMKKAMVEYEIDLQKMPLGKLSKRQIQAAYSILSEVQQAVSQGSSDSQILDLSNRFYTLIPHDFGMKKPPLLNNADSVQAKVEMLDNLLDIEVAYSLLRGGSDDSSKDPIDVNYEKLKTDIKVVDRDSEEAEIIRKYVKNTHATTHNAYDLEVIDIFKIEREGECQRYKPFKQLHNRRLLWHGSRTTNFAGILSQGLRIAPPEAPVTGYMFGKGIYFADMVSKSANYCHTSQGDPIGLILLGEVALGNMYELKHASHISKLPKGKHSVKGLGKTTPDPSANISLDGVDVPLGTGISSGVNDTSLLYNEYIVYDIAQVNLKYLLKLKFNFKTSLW
UniProt Q9NR21: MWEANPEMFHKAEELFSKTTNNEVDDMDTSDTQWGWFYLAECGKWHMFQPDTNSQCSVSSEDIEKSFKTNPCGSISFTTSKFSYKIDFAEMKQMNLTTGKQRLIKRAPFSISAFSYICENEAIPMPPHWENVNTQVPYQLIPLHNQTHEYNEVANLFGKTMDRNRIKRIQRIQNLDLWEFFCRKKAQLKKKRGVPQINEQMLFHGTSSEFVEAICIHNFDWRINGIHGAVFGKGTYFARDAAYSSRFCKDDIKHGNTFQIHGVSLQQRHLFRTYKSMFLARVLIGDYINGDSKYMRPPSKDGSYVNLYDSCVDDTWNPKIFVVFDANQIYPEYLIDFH
UniProt Q7Z3E1: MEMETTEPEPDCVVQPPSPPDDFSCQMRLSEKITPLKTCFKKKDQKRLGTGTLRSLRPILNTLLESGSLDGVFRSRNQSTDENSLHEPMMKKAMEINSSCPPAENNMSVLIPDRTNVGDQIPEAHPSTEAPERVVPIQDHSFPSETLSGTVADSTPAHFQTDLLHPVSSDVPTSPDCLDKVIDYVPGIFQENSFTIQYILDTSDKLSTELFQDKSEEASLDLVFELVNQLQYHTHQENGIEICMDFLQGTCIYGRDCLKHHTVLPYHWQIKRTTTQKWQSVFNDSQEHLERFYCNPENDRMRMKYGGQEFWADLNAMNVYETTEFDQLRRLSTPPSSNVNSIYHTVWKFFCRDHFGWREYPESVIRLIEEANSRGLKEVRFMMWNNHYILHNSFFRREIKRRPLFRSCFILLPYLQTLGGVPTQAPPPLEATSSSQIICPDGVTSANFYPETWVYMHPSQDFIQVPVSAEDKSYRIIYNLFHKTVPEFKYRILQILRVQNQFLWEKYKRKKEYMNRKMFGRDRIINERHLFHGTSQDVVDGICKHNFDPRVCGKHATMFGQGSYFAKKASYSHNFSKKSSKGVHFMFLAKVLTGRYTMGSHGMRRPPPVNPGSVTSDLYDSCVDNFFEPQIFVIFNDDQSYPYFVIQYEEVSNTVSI
UniProt Q460N5, whole entry: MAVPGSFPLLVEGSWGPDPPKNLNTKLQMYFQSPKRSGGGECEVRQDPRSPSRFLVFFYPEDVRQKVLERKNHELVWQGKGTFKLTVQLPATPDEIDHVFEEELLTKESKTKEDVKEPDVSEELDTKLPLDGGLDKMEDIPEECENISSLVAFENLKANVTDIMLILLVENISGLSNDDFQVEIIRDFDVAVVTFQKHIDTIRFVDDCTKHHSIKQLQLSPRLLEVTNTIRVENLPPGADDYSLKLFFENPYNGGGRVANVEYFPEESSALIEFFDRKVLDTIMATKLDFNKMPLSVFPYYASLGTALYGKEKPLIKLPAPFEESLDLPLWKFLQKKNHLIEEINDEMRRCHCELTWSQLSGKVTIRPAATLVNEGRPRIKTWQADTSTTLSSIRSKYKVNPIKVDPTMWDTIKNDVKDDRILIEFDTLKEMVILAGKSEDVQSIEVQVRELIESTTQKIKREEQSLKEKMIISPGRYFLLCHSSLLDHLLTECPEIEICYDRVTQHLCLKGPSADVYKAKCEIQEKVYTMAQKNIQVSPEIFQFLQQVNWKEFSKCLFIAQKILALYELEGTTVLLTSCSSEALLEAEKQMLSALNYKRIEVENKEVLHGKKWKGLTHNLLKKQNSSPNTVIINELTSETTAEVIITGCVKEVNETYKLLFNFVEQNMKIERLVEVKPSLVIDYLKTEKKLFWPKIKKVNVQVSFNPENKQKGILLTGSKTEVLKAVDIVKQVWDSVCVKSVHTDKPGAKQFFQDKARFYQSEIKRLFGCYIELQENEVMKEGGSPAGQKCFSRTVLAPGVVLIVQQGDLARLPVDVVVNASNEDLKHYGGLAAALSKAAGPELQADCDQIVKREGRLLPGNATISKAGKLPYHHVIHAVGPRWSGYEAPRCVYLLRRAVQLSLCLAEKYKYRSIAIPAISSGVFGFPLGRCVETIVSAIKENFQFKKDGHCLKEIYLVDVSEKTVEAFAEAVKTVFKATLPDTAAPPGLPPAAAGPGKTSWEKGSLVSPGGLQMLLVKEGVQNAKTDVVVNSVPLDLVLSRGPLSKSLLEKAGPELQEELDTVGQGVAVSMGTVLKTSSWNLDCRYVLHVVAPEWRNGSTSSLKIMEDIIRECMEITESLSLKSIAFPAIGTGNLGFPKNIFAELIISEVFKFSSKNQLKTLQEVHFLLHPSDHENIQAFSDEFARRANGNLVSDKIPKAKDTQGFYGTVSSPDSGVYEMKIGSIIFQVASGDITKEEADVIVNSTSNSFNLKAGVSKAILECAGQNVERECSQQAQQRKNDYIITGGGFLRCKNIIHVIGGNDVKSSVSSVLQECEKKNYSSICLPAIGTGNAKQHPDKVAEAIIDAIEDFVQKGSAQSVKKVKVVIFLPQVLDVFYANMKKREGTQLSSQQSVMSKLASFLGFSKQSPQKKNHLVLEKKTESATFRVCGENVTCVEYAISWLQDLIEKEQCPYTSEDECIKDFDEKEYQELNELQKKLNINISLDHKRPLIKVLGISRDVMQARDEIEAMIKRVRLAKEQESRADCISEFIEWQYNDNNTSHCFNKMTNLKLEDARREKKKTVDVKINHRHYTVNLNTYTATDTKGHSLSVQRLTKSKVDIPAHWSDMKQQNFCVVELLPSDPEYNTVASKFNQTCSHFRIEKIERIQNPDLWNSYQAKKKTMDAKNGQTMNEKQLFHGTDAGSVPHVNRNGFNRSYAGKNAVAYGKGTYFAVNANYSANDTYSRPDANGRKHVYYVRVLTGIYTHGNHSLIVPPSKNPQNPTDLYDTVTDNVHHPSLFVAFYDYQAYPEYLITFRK
UniProt Q9UGN5: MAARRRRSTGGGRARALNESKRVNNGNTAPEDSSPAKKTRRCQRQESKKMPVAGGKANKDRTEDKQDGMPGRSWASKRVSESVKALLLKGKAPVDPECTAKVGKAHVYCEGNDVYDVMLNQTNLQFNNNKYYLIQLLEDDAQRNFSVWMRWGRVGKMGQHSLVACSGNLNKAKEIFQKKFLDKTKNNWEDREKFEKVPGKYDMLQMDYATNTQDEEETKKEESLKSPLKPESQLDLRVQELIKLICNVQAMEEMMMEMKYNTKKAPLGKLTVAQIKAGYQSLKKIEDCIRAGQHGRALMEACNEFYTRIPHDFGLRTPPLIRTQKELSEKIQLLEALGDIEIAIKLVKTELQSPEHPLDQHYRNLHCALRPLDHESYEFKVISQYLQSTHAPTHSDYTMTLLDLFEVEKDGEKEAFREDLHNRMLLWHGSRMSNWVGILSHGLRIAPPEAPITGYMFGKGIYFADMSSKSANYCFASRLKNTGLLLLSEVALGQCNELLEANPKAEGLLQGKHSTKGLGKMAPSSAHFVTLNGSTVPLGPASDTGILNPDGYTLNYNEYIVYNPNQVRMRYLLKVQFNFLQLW

Columns and labels:
[1] = test system: PARP14; details: read-out: PARP14 IC50; Figure 1 ref 39; cited from earlier work
[2] = target: T1, PARP12 (Homo sapiens, UniProt Q9H0J9); type: biochemical; details: proximity-enhanced assay
T1 construct: dockerin domain of Hungateiclostridium thermocellum Cel48s (C); made in house; host or cells: Escherichia coli
T1 sequence (Q9H0J9 1-701): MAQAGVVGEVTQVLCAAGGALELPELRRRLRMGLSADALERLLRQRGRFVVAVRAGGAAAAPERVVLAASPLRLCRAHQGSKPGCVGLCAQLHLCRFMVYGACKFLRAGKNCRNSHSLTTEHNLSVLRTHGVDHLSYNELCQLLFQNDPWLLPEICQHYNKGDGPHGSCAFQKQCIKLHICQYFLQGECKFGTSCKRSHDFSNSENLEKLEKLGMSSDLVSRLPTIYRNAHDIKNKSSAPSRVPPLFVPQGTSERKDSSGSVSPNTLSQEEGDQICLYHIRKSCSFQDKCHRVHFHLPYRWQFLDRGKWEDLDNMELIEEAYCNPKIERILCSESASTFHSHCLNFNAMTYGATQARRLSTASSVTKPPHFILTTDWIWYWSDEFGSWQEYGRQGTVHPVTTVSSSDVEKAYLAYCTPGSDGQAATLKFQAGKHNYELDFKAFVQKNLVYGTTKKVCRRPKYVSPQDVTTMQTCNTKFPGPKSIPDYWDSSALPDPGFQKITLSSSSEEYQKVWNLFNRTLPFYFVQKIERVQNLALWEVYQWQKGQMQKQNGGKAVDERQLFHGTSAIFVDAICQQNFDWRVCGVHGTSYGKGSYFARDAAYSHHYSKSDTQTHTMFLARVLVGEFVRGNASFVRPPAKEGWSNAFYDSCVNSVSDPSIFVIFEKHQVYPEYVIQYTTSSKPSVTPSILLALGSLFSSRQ
Procedure: (§1) We therefore had to improve the assay method and developed a homogeneous proximity enhanced assay for mono-ARTs.[47]
(§2) The proteins used in Tables 1–3 were produced as described earlier. Dockerin constructs to allow enhanced activity assays for mono-ARTs (Table 4) were produced in Escherichia coli with an N-terminal maltose binding protein (MBP) and a C-terminal dockerin domain from Hungateiclostridium thermocellum Cel48s as described recently.[47]
(§3) Inhibition experiments were performed using a homogenous assay measuring NAD+ consumption.[80]−[82] Reactions were carried out in quadruplicate, and IC50 curves were fitted using sigmoidal dose response curve (four variables) in GraphPad Prism version 8.02. […] Assay conditions for PARP2, TNKS2, PARP10, and PARP15 (Tables 1–3) were recently reported.[44] The conditions for the proximity-enhanced mono-ART assays (Table 4) were also reported recently.[47] PARP6 (400 nM) inhibition was measured using the standard buffer (50 mM sodium phosphate pH 7.0) for the enhanced activity assay using 500 nM NAD^+ and 18 h incubation in r.t..

[3] = target: PARP3 (Homo sapiens, UniProt Q9Y6F1); details: read-out: PARP3 IC50
Procedure: as §3

[4] = target: PARP1 (Homo sapiens, UniProt P09874); details: read-out: PARP1 IC50
Procedure: as §3

[5] = target: PARP4 (Homo sapiens, UniProt Q9UKK3); details: read-out: PARP4 IC50
Procedure: as §3

[6] = target: PARP11 (Homo sapiens, UniProt Q9NR21); details: proximity-enhanced assay
Procedure: as §1, §2, §3

[7] = target: PARP7 (Homo sapiens, UniProt Q7Z3E1); details: proximity-enhanced assay
Procedure: as §1, §2, §3

[8] = target: PARP14 (Homo sapiens, UniProt Q460N5); details: proximity-enhanced assay
Procedure: as §1, §2, §3

[9] = target: T2, PARP15 (Homo sapiens, UniProt Q460N3); details: proximity-enhanced assay
T2 sequence (Q460N3 1-678): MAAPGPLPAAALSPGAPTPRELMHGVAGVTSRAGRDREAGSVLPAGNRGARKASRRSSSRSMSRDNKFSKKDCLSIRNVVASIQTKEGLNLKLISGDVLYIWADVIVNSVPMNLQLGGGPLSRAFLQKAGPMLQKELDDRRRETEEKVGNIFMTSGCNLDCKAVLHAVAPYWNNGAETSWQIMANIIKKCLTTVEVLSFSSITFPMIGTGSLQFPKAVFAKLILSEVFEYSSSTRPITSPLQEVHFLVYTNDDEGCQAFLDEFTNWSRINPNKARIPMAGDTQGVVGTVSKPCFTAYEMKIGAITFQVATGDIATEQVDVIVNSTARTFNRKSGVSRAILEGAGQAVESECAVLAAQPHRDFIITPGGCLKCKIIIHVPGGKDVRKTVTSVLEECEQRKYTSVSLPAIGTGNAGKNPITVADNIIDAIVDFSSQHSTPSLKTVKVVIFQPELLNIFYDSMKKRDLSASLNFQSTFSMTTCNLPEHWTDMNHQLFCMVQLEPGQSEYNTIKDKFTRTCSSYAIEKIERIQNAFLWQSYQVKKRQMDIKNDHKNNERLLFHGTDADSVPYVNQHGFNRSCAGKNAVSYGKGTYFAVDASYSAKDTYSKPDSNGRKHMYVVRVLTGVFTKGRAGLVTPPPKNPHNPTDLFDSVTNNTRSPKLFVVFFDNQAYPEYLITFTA
Procedure: as §1, §2, §3

[10] = target: T3, PARP10 (Homo sapiens, UniProt Q53GL7); test: biochemical; type: biochemical; parameters: made in house; details: standard assay (Tables 1-3)
T3 sequence (Q53GL7 1-1025): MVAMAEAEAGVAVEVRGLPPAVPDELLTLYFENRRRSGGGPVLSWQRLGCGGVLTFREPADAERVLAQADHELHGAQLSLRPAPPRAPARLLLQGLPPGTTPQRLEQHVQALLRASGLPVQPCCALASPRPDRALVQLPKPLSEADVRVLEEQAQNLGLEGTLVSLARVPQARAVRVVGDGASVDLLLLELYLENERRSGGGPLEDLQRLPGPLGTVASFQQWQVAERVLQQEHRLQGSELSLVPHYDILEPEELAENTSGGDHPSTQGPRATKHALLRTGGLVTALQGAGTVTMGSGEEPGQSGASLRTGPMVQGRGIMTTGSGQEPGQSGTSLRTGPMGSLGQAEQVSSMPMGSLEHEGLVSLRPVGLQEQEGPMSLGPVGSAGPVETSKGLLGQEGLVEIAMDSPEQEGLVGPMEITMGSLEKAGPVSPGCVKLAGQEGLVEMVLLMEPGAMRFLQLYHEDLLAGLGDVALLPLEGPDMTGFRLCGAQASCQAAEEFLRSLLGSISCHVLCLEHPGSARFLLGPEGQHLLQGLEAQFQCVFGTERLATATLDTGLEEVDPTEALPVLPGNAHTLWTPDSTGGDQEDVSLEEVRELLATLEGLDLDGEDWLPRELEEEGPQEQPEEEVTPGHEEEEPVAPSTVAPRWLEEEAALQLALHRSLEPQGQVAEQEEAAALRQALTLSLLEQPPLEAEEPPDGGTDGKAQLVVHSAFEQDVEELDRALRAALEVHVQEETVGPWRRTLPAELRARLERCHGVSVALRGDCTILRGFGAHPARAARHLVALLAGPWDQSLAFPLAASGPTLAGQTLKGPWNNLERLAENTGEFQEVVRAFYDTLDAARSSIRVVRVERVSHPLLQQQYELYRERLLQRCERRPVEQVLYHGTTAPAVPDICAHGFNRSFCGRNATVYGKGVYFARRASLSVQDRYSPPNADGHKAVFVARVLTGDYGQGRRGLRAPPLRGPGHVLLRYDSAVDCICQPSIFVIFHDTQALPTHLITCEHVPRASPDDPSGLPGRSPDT

[11] = target: T2, PARP15; test: biochemical; type: biochemical; parameters: made in house; details: standard assay (Tables 1-3)
[12] = target: T4, TNKS2 (Homo sapiens, UniProt Q9H2K2); details: read-out: TNKS2 IC50; > = less than 50% inhibition at highest concentration
T4 sequence (Q9H2K2 1-1166): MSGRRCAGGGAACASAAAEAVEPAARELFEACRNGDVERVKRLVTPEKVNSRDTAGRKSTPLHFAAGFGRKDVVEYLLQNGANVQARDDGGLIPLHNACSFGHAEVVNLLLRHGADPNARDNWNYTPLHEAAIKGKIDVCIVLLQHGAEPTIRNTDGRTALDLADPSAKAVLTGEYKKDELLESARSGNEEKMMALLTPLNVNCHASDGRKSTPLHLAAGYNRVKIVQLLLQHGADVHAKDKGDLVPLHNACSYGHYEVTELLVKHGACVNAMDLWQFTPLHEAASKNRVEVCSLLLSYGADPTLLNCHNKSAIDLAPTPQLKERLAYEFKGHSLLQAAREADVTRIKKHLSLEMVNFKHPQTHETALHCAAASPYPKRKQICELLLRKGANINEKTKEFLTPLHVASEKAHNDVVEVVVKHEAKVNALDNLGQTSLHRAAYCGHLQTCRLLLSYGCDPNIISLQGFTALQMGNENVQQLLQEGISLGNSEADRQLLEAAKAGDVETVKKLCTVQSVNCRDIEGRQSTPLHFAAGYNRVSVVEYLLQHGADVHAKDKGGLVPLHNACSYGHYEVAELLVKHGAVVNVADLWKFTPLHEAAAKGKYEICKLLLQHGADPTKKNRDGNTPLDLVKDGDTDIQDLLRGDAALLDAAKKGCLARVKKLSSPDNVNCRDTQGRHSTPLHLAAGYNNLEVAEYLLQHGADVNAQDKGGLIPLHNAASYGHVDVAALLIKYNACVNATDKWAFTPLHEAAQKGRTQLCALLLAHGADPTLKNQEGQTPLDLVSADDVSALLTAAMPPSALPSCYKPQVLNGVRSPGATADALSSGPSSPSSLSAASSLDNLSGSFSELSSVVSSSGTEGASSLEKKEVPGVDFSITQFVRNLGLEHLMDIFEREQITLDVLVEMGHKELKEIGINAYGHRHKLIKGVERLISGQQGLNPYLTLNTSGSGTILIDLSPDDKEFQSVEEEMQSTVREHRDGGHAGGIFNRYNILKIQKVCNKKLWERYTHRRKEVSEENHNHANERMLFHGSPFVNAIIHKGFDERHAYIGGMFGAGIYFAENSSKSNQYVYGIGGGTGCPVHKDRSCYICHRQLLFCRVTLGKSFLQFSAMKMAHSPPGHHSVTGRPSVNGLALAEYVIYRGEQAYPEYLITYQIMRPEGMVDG
Procedure: as §2, §3

[13] = target: T5, PARP2 (Homo sapiens, UniProt Q9UGN5); type: biochemical; details: > = less than 50% inhibition at highest concentration; ≫ = no inhibition
T5 construct: made in house

## O=c1[nH]c(CS[C@H]2CC[C@H](O)CC2)nc2cc(OCC3CC3)cc(F)c12 [RBN-012759]
[1]
  IC50: 3 nM

## COc1ccc(OC)c2c1sc1nnc(N)n12 [Compound 27, 5,8-Dimethoxy[1,2,4]triazolo[3,4-b][1,3]benzothiazol-3-amine]
[2]
  IC50: 160 nM
[2]; n = 3
  PARP12 pIC50 ± SEM: 6.80 ± 0.002
[3]
  IC50: 50000 nM
[4]
  IC50: 15000 nM
[5]
  IC50: 11000 nM
[6]; n = 3
  PARP11 pIC50 ± SEM: 6.61 ± 0.07
[6]; read-out: PARP11 IC50
  IC50: 240 nM
[7]; n = 3
  PARP7 pIC50 ± SEM: 7.08 ± 0.06
[7]; read-out: PARP7 IC50
  IC50: 83 nM
[8]; n = 3
  PARP14 pIC50 ± SEM: 6.52 ± 0.03
[8]; read-out: PARP14 IC50
  IC50: 300 nM
[9]; n = 3
  PARP15 pIC50 ± SEM: 7.25 ± 0.01
[9]; read-out: PARP15 IC50
  IC50: 56 nM
[10]
  PARP10 pIC50 ± SEM: 6.93 ± 0.06
[10]; * value limited by the protein concentration used, > less than 50% inhibition, ≫ no inhibition at the concentration, read-out: PARP10 IC50
  IC50: 120 nM
[11]
  PARP15 pIC50 ± SEM: 6.91 ± 0.03
[11]; * value limited by the protein concentration used, > less than 50% inhibition, ≫ no inhibition at the concentration, read-out: PARP15 IC50
  IC50: 120 nM

## COc1ccc(OC)c2c1sc1nnc(NC(=O)c3ccc(Cl)cc3)n12 [Compound 29]
[12]
  IC50: 20000 nM
[13]
  IC50: 44000 nM
